Patent US10406185B2, “Cancer therapy with a parvovirus combined with a BCL-2 inhibitor” (DEUTSCHES KREBSFORSCHUNGSZENTRUM, priority 2013, dated 2019)

System: AsPC-1 xenografts
Conditions: nude rats; ABT-737 50 mg/kg every second day for 14 days; H-1PV 2.5 10^8 pfu/animal intratumoral
Description: 5×10^6 AsPC-1 cells were subcutaneously injected in the right flank of 5 week-old female nude rats. After 1 week (when tumour reached the volume of 200-400 mm^3), tumour-bearing animals were randomized in to four groups (n=8). […] Tumour volume was measured with a digital calliper on the days indicated and calculated according to the formula: volume […]=width^2× length/2. Rats were sacrificed when the tumour mass reached 4000 mm^3, in keeping with animal welfare regulations. Data shown represents the average values with standard deviation bars.

In the case of `CN(C)CC[C@H](CSc1ccccc1)Nc1ccc(S(=O)(=O)NC(=O)c2ccc(N3CCN(Cc4ccccc4-c4ccc(Cl)cc4)CC3)cc2)cc1[N+](=O)[O-]` [ABT-737], the “therapeutic effect on established tumours” value is reported as “failed to have a significant therapeutic effect”.
